In data set [1] the test system is reserpine-induced catatonia. The experiment in a line: Inhibition of reserpine-induced catatonia (preventive, oral compound 30 min before reserpine). The class given is in vivo, rat (male, OFA strain). On the procedure: After sufficient doses of reserpine have been administered to the rat, a series of symptoms occur, more particularly ptosis, catatonia and a drop in central temperature. These symptoms are caused by the depletion of the intragranular reserve pool of biogenetic amines at the synaptic terminals.
An oral dose of the compound to be studied in aqueous solution was administered to batches of 10 male rats of the OFA strain weighing about 150 to 200 g. Thirty minutes later a dose of 5 mg/kg of reserpine was given by intraperitoneal route. Three hours after the injection of reserpine, the animals were suspended by the four paws to a horizontally stretched wire fixed at 15 cm from the ground. The catatonia animals were those which maintained the position so given for at least 30 seconds. […] The maximum score was therefore 10 per batch. An identical trial was undertaken with control animals which received reserpine but none of the compounds being studied.

Data set [2] relates to neuroleptic-induced catatonia. The experiment in a line: Inhibition of neuroleptic (prochlorperazine)-induced catatonia (preventive). It counts as in vivo, rat (male, OFA strain). The note with it: times more active than amantadine. On the procedure:
The blocking of dopaminergic receptors by neuroleptics in the extra-pyramidal system induces catatonia in the rat. Catatonia is differentiated from sedative properties by means of the test used hereabove for reserpine-induced catatonia. The same system of scoring was also employed in the present case.
An oral dose of the compound to be studied in aqueous solution was administered to batches of 10 male rats of the OFA strain weighing about 150 to 200 g.
Three hours after the injection of this latter compound, catatonia was measured. An identical trial was also carried out with control animals which received prochlorperazine but none of the compounds under study.
The scoring system used was that given hereabove for Table I.

Data set [3] concerns reserpine-induced catatonia. The experiment in a line: Suppression of reserpine-induced catatonia (curative treatment). The note with it: times more active than amantadine. The class given is in vivo, rat (male, OFA strain). On the procedure:
Batches of 5 male rats of the OFA strain, weighing 150 to 200 g were given 5 mg/kg of reserpine by intraperitoneal route. One hour and 45 minutes later, namely when the animals were in a state of catatonia, an aqueous dose of the compound to be studied was administered by oral route to all the animals with the exception of the control group.
The progress of the catatonia was then noted following the scale used in the tests described hereabove.
The maximum score was thus 5 per batch which means that all the animals of the batch were considered to be still in a state of catatonia.

Data set [4] has as its system neuroleptic-induced catatonia. In words: Suppression of neuroleptic (prochlorperazine)-induced catatonia (curative treatment). It counts as in vivo, rat (male, OFA strain). The note with it: times more active than amantadine. On the procedure: Batches of 5 male rats of the OFA strain were given 12.5 mg/kg of prochlorperazine by intraperitoneal route. Fifty-five minutes later, an oral dose in aqueous solution of the compound to be studied was administered to all the animals with the exception of the control group. The progress of the catatonia was noted following the same scale as that used in the tests described above.

The next data set is described as follows: Tremor-inducing action. The note with it: 0.031 m mol/kg oral, 30 min, hydrochloride form.

As for `CCCC(N)(CCC)CCC` [Compound 1], the “index of reserpine-induced catatonia (numerator of ratio)” value in data set [1] (0.031 m mol/kg oral, hydrochloride form) is given as 4 (represents 100% inhibition of catatonia in comparison with the controls). In addition, the “activity relative to amantadine, reserpine-induced catatonia” value in data set [1] (dose ratio to amantadine, equal effect) is recorded as “twenty times”. In addition, in data set [2], the “activity relative to amantadine, neuroleptic-induced catatonia” value is “twenty times more active”. For the same molecule, the “activity relative to amantadine, curative, reserpine-induced catatonia” value in data set [3] is “at least 32 times”. Moreover, the “activity relative to amantadine, curative, neuroleptic-induced catatonia” value in data set [4] is reported as “at least 16 times”. In the data set “Tremor-inducing action” (batches of 10 rats), the “number of animals presenting tremors (denominator of ratio)” value turned out to be 10. The “ratio of index of reserpine-induced catatonia inhibition to number of animals presenting tremors” value in the data set “Tremor-inducing action” is listed as 0.40.
